From patent US6583106B2, “Monohydric alcohol derived urethanes and their use in cosmetic formulations” (Alzo International, Inc., priority 1997, dated 2003) come the findings set out here.

A short description of data set [1]: Urethane stability study (hydroxyl value after heat/reflux and pH variation). The data set is classed as physicochemical. As to conditions: before treatment; A.O.C.S. hydroxyl value method. As for the experimental part: (§1) The following stability study was conducted to determine the structural stability of dimeric urethane compounds according to the present invention compared to mono- and diesters under conditions of pH and thermal variation. Because the decomposition products of the mono- and diesters are alcohol and acid, the degree of decomposition may be accurately determined by measuring the acid value. The measurable decomposition product of the urethane compound is alcohol, which is accurately measured by determining the hydroxyl value.
IV. Procedure for Urethane Stability
The following steps were performed on each urethane sample:
(1) Run hydroxyl value test.
(2) Follow steps 2-8 for mono- and diester (above).
(3) Run hydroxyl value test on solution in beaker A.
(4) Perform step 10, from above.
(5) Run hydroxyl value test on solution in Beaker B and Beaker C.
Under conditions of this study, that is,
“A”: Product in alcoholic/water solution, heat
“B”: Product in alcoholic/water solution, heat, pH=2.5-3.5
“C”: Product in alcoholic/water solution, heat, pH=13-14

Data set [2] can be described thus: Mono- and diester stability study (acid value after heat/reflux and pH variation). Type of data set: physicochemical. Particulars: before treatment; A.O.C.S. T.M. #Cd 3a-63. As for the experimental part:
as §1
III. Procedure for Determining Mono- or Diester Stability
The following steps were performed on each ester sample:
(2) Into three ground glass Erlenmeyer flasks, weigh a 20 g sample of the ester.
(3) Into each flask, pipette 50 ml of a neutralized (to phenolpthalein end point) Solution of 70% Isopropanol in water. Boiling stones are added.
(4) Connect flask A to a 4-5 ft. Reflux condenser and heat so that it refluxes 1 ft. High (to approximately 80-90° C.). After connecting flasks A, B and C, proceed to step (7).
(5) Add 10% Aq. Hcl solution to adjust pH of solution in flask B to pH=2.5-3.5. See step (4).
(6) Add 20% Aq. KOH Solution to adjust pH of solution in Flask C to pH=13-14. See step (4).
(8) For each flash, A, B and C, disconnect condenser. Pour Alcoholic solution into wide diameter beaker (A, B and C). Add spin bar. […]

Consider “Eicosanyl alcohol dimer with IPDI [Monoderm I-24]”, for which the “HYDROXYL V INITIAL” value in data set [1] came out at 9.3 mg KOH/g. Regarding Isocetyl salicylate [ICSA], the “ACID V INITIAL” value in data set [2] was found to be 0.91 mg KOH/g.
